Patent US20040248957A1

Biological target: human PDE6D (Homo sapiens, UniProt O43924)

| Kd [nM] | SMILES |
| --- | --- |
| 420 | C=CCSc1nc(-c2ccccc2)c(-c2ccccc2)[nH]1 |
| 568 | Clc1cccc(Cl)c1CSc1nc(-c2ccccc2)c(-c2ccccc2)[nH]1 |
| 779 | Cc1sc(-c2ccsc2)nc1-c1ccc(-c2ccccc2F)cc1 |
| 495 | CNc1nccc(-c2c(-c3ccc(F)cc3)ncn2C2CCN(Cc3ccccc3)CC2)n1 |
| 3050 | Cc1ccc(CSc2nc(-c3ccccc3)c(-c3ccccc3)[nH]2)cc1 |
